Data: PubChem BioAssay AID651596 (Sanford-Burnham Center for Chemical Genomics, 2012)
The entries are a selection whose mix differs from that of the whole data set.

Chains of the proteins cited; added tags and fusions are not shown.
UniProt O14763, whole entry, looked up: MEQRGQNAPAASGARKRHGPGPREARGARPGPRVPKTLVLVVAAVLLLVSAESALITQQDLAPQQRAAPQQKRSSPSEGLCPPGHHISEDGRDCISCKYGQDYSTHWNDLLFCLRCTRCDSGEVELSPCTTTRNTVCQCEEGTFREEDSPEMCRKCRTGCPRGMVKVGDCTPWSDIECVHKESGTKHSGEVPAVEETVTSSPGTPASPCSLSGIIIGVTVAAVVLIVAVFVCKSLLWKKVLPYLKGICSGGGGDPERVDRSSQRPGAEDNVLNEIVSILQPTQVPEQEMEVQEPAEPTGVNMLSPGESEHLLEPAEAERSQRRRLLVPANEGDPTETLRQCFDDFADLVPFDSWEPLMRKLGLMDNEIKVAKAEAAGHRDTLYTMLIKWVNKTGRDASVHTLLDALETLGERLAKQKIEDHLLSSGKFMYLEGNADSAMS

What follows are compounds tested against Tumor necrosis factor receptor superfamily member 10B (Homo sapiens) (UniProt O14763) (assay: caspase-8 TRAIL sensitization, hit retest, confirmation, cell-based, NB7+caspase-8, with/without TRAIL, luminescence panel (AID 651596)). Conditions: NB7 neuroblastoma + caspase-8, TRAIL sensitization, luminescence viability, mean of runs, at 10 µM, stronger effect = higher value; in the data active = activity above about 50%; inactive = the rest.
`CCCCCCCCCCCCCCCC1C[N+](C)(C)CCOP(C)(=O)O1` (configuration not stated) gave an activity of 90%.
For `O=[N+]([O-])c1cc([N+](=O)[O-])c(Nc2ccccn2)c([N+](=O)[O-])c1`, the activity was 55.4%.
